Broadly, the Ki is the dissociation constant of the complex between target and ligand, obtained from inhibition or displacement.

The structures appear in SMILES notation.

The target of this assay is T1, Adenosine deaminase (Homo sapiens, UniProt P00813).
T1 sequence (P00813 whole entry): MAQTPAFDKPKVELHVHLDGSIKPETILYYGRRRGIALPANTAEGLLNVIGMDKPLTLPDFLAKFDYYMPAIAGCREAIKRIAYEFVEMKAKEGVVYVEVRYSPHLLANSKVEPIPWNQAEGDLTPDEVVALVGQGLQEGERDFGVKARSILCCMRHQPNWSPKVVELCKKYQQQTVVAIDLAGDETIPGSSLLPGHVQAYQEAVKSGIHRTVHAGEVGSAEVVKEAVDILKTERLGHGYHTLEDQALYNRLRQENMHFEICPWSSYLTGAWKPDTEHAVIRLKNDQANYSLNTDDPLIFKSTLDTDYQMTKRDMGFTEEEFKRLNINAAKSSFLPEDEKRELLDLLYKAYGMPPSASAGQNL
In turn, `NC(=O)c1cn(C(CO)CCc2cccc3ccccc23)cn1` (centres undefined) displayed an inhibitory constant (Ki) of 680 nM.
For the compound `C[C@H](O)[C@@H](CCc1cccc(Cl)c1Cl)n1cnc(C(N)=O)c1`, the Ki turned out to be 13 nM.
In turn, `C[C@H](O)[C@@H](CCOc1ccc2ccccc2c1)n1cnc(C(N)=O)c1` showed a Ki of 9.8 nM.
The compound `C[C@H](O)[C@@H](CCc1cccc2ccccc12)n1cnc(C(N)=O)c1` yielded a Ki of 11 nM.

Source of the values: ChEMBL document CHEMBL1148456, “Structure-based design and synthesis of non-nucleoside, potent, and orally bioavailable adenosine deaminase inhibitors” (J Med Chem, 2004).
